Like-named read-outs stand apart in the source and are kept apart here.
Columns and labels:
[1] = target: T1, SARS-CoV-2 helicase (Severe acute respiratory syndrome coronavirus 2, UniProt P0DTD1); settings: read-out: IC50 DNA-unwinding activity; based on metal content
[2] = target: T1, SARS-CoV-2 helicase; settings: read-out: IC50 ATPase activity; based on metal content
[3] = target: T1, SARS-CoV-2 helicase; assay: Zinc supplementation assay; assay type: biochemical; settings: up to 50 molar equivalents of zinc(II) added to bismuth bound helicase

Compound `CCP(CC)CC.[Au+].[Cl-]` [Au(PEt3)Cl, chloro(triethylphosphine)gold(I)] has an IC50 [1] of 340 ± 70 nM and an IC50 [2] of 230 ± 10 nM.

`[Bi+3]` [Bi^3+] was tested, and the “ATPase activity restored by zinc(II)” value [3] was roughly 6% and the “duplex-unwinding activity restored by zinc(II)” value [3] was roughly 13%.
